“And” between values parts separate entries of the source, which are not always exact repeats. Equal values may be shown once.
Target: hAChE (Homo sapiens, UniProt P22303)
Experiment: biochemical
Format: binding

By UniProt entry, the sequences of proteins in these tests, tags left out. Residues count along the entry.
UniProt P22303, 32-574: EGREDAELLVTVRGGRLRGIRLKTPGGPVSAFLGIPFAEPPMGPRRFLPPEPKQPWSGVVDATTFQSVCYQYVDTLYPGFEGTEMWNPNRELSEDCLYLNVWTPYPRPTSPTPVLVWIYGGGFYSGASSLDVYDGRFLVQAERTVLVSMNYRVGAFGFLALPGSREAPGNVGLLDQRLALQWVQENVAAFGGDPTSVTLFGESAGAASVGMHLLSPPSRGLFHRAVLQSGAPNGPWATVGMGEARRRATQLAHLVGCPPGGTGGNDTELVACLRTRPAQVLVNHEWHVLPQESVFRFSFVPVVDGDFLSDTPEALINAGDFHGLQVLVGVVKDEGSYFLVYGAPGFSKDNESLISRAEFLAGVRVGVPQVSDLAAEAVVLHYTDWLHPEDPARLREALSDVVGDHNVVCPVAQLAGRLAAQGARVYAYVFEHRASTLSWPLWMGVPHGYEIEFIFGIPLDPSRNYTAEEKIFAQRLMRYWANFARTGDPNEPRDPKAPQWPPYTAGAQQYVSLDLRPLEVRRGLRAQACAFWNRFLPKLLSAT

## CC[N+](C)(CC)CCC[n+]1c(-c2ccccc2)c2cc(N)ccc2c2ccc(N)cc21 [Propidium, propidium iodide]
  Kd: 6.7 ± 0.7 µM
pH 8
  n (±SD), binding stoichiometry: ~ 1 and 0.8 ± 0.1
  ΔH (±SD), binding heat: -10.9 ± 1.2 kcal/mol
